# From patent publication US6579857B1, “Combination cancer therapy comprising adenosine and deaminase enzyme inhibitors” (Evanston Northwestern Healthcare Research Institute, priority 1999, dated 2003)
# Key:
# [1] = tested on: OVCAR3, OVCAR5, DU145, PC3, LNCaP, TSU-PR1, and MCF-7 tumor cell lines; settings: several tumor cell lines; dipyridamole with Ado/CF; 60 hours
# sensitive cell lines = settings: cordycepin substituted for adenosine in experiments as in Example 3
smiles,measurement,setting,value
OCCN(CCO)c1nc(N2CCCCC2)c2nc(N(CCO)CCO)nc(N3CCCCC3)c2n1 [dipyridamole],protection from cytotoxic effects of Ado/CF treatment,[1],consistently was able to protect
same,blocking the toxic effects of cordycepin,sensitive cell lines,ineffective
